This note sets out measurements from ChEMBL document CHEMBL4000146, “Synthesis, antiplasmodial activity and mechanistic studies of pyrimidine-5-carbonitrile and quinoline hybrids” (Eur J Med Chem, 2015).

Assay [1] concerns Heme.
Assay [2] relates to Heme. This is another data set of the same source.

Turning to `CSc1nc(NCCCCNc2ccnc3cc(Cl)ccc23)c(C#N)c(-c2cccc([N+](=O)[O-])c2)n1`, the logKa with Heme [1] was 5.54; in the assay on Heme [2], 5.08; with mu-oxodimeric heme it was 5.86.
